Molecular target: 5-hydroxytryptamine receptor 1A (Mus musculus, UniProt Q64264)
Assay: Inhibitory activity towards 5-hydroxytryptamine 1A receptor by the displacement of [3H]8-OH-DPAT in mouse hippocampus
Format: tissue-based
How it was run: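 Membranes incubated in triplicate with 1.2 nM [3H]8-OH-DPAT plus varying analogue concentrations, 30 min at 23 °C, 0.5 mL final volume. Filtered on PEI-pretreated GF/B; scintillation counting. IC50 derived from seven-point inhibition curves.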

Protein sequences, listed by entry. Tags and fused reporters are not part of them.
UniProt Q64264, whole entry: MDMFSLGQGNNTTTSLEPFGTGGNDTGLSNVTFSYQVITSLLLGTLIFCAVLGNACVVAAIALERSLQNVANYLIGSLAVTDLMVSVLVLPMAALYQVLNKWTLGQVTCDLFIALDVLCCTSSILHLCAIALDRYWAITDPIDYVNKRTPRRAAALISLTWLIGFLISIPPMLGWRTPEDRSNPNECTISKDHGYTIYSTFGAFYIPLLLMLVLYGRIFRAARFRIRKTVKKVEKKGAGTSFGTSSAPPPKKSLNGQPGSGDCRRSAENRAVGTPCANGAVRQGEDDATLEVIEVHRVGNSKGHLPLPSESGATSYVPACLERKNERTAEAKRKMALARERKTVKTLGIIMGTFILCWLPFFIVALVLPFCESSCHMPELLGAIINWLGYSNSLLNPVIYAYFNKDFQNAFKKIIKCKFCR

`NCCc1c[nH]c2ccc(O)cc12` [SEROTONIN] gave an IC50 of 5 nM.
